The record followed here is patent publication US6451853B1, “Small molecules that elicit a polarized Th1 response and for modulation of cellular immunity” (Dovetail Technologies, Inc, priority 1998, dated 2002).

This experiment concerns TNF-R I on T cells (PBMCs). Put plainly: TNF receptor I expression on T cells by FACS. Particulars: stimulated T cells, 20 mM beta-alethine. For orientation: In flow cytometry, cells or beads pass a laser one at a time.

In the case of `NCCC(=O)NCCSSCCNC(=O)CCN` [BT, beta-alethine], the “share of T-cell population with elevated TNF-R I expression relative to PMA/ionomycin alone” value was “over 50%”.
